Our source for the activation values is PubChem BioAssay AID652268 (The Scripps Research Institute Molecular Screening Center, 2013).

This is a selection; strong and weak results do not stand in their true shares. The source made the active and inactive calls. No stated cut-off is given here; in the data, active means activation above about 1.3%; inactive means the rest.

The assay is described as follows: nonspecific cAMP agonists in parental HEK-CNG cells, counter-screen for GalR3 antagonist project, cell-based, fluorescence, high throughput (AID 652268). Particulars: HEK293-CNG parental cells, cAMP membrane potential fluorescence; at 3 µM; active compounds read high; normalised: DMSO wells 0%, forskolin wells 100%.
As for `CCN(CC)CCCOC(=O)C(O)(c1ccccc1)c1ccccc1`, the activation is inactive: 0.3%.
The value for `O=[N+]([O-])c1cc([N+](=O)[O-])c(Nc2ccc(Cl)cc2)c([N+](=O)[O-])c1` was inactive: 0.13%.
